## AlphaSeq binding of Ab-14 light chain variants to a spike HR2 peptide

Binding partner: SARS-CoV-2 spike HR2 peptide, sequence PDVDLGDISGINAS.

Each scFv is VH, the linker GGGGSGGGGSGGGGS, VL, as in the parent Ab-14, and differs from it in the CDRs of the light chain only.
VH: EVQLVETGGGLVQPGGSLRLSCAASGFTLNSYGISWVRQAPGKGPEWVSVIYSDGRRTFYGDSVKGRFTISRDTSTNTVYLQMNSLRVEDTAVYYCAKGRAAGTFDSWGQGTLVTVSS
VL: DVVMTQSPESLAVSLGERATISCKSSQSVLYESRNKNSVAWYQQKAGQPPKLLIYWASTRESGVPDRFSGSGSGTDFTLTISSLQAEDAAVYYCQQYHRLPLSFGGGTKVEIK

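Phage display of a naive human antibody library on the peptide gave the parent. This is the validation round: designs drawn from the data on random variants, tested in the same kind of assay. Their group label is 14L_En_HC (En: ensemble of fine-tuned language models; HC: hill climbing; a sequence that several methods proposed may carry one label only). The assay is AlphaSeq: two haploid yeast populations carry antibody and antigen on their surface. Mating (16 h, 30 °C) was followed by selection of diploids and sequencing of their barcodes. Scores were corrected for input abundance and mapped to Kd with protein pairs of known affinity run in the same pool. Mating was done six times.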

Variants are written as CDR1, CDR2 and CDR3 of the light chain (limits as in the source). Parent: KSSQSVLYESRNKNSVA, WASTRES, QQYHRLPLS. Affinities are written as log10 Kd with Kd in nM; a lower number is a better binder. Replicates are averaged; those with no signal do not enter the mean. A pair that was not seen in that replicate is written "ND"; this usually means weak binding, but a binder can also be missed.

{"CDR-L1": "KLSMSYRYESENKNSIA", "CDR-L2": "ELVTRLS", "CDR-L3": "QQYHRLPLS", "log10 Kd, replicates": "ND / 2.20 / ND / ND / ND / ND", "log10 Kd (nM), mean": "2.20", "empty controls": "0 of 18"}
{"CDR-L1": "KISMMYRYEQQNSSSIA", "CDR-L2": "EVSTRLN", "CDR-L3": "QSYHRLPLS", "log10 Kd, replicates": "ND / ND / ND / ND / ND / ND", "log10 Kd (nM), mean": "ND", "empty controls": "0 of 18"}
{"CDR-L1": "KLGQMTAIESRNLNSVA", "CDR-L2": "QMTTRES", "CDR-L3": "QQYDRLPLS", "log10 Kd, replicates": "0.45 / 0.42 / 0.44 / 0.33 / 0.41 / 0.49", "log10 Kd (nM), mean": "0.42", "empty controls": "1 of 18 (1.64)"}
{"CDR-L1": "HVSEMIFAQSKARNSVA", "CDR-L2": "ENSTREA", "CDR-L3": "QQYDRLPLS", "log10 Kd, replicates": "ND / ND / ND / 2.46 / 2.50 / ND", "log10 Kd (nM), mean": "2.48", "empty controls": "0 of 18"}
{"CDR-L1": "KIGHAVTGTSRKGNSVA", "CDR-L2": "QAETRLD", "CDR-L3": "QQYHRLPLM", "log10 Kd, replicates": "1.01 / 0.48 / 0.89 / 0.85 / 0.34 / 0.67", "log10 Kd (nM), mean": "0.71", "empty controls": "1 of 18 (3.83)"}
{"CDR-L1": "TISQSFNMENQFKNSVA", "CDR-L2": "QASTRES", "CDR-L3": "QCYDRLPLS", "log10 Kd, replicates": "-0.13 / 0.00 / 0.05 / 0.38 / 0.12 / -0.21", "log10 Kd (nM), mean": "0.03", "empty controls": "0 of 18"}
{"CDR-L1": "NISESMYFQSRMKNNIA", "CDR-L2": "EMSTRER", "CDR-L3": "QHYHRLPLS", "log10 Kd, replicates": "0.81 / 0.73 / 0.29 / 0.67 / 0.61 / 0.46", "log10 Kd (nM), mean": "0.59", "empty controls": "1 of 18 (2.50)"}
{"CDR-L1": "IITQSVMQESRNKSNVA", "CDR-L2": "NTSEREG", "CDR-L3": "QQYDRLPLI", "log10 Kd, replicates": "1.56 / 1.42 / 1.84 / 1.54 / 1.81 / 1.75", "log10 Kd (nM), mean": "1.65", "empty controls": "1 of 18 (2.52)"}
{"CDR-L1": "KLSATYRFESQNKNNIA", "CDR-L2": "EMTTREQ", "CDR-L3": "QCYHRLPLS", "log10 Kd, replicates": "1.89 / 0.26 / 2.15 / 0.85 / 0.82 / 1.72", "log10 Kd (nM), mean": "1.28", "empty controls": "0 of 18"}
{"CDR-L1": "TIGQSVHETSRGKNSVA", "CDR-L2": "HASTRED", "CDR-L3": "QQYDRLPLS", "log10 Kd, replicates": "0.37 / 0.76 / 0.59 / 0.57 / 0.77 / 0.70", "log10 Kd (nM), mean": "0.63", "empty controls": "0 of 18"}
{"CDR-L1": "KLSMSMRFLTEQKNSIA", "CDR-L2": "ELVTRMS", "CDR-L3": "QQYHRLPLS", "log10 Kd, replicates": "1.54 / 1.37 / 1.34 / 1.86 / 1.91 / 1.80", "log10 Kd (nM), mean": "1.64", "empty controls": "0 of 18"}
{"CDR-L1": "NISQMIFMETKNVNNVA", "CDR-L2": "QTSTREE", "CDR-L3": "QDYHRLPLS", "log10 Kd, replicates": "0.26 / 0.19 / 0.26 / -0.03 / -0.14 / 0.10", "log10 Kd (nM), mean": "0.11", "empty controls": "1 of 18 (3.37)"}
{"CDR-L1": "TISQMWFIESKNKNNVA", "CDR-L2": "EMTTREN", "CDR-L3": "QDYDRLPLS", "log10 Kd, replicates": "0.59 / 0.34 / 0.47 / 0.23 / 0.30 / 0.09", "log10 Kd (nM), mean": "0.34", "empty controls": "1 of 18 (2.25)"}
{"CDR-L1": "HISQSFMIESVWRNNVA", "CDR-L2": "HQSTREQ", "CDR-L3": "QQYDRLPFS", "log10 Kd, replicates": "0.81 / 1.19 / 0.88 / 1.67 / 1.02 / 0.88", "log10 Kd (nM), mean": "1.08", "empty controls": "1 of 18 (2.31)"}
{"CDR-L1": "SLAESVHMESRNKNSVA", "CDR-L2": "DNSTRES", "CDR-L3": "QHYDRLPLS", "log10 Kd, replicates": "2.14 / ND / ND / ND / 3.69 / 2.65", "log10 Kd (nM), mean": "2.83", "empty controls": "1 of 18 (3.93)"}
{"CDR-L1": "ILYESVGTLSRNKNSVA", "CDR-L2": "DNSTRES", "CDR-L3": "QQYDRLPLS", "log10 Kd, replicates": "2.93 / 2.70 / 2.07 / 2.24 / 2.59 / 3.82", "log10 Kd (nM), mean": "2.73", "empty controls": "1 of 18 (2.64)"}
{"CDR-L1": "SISASMAFLSRNKNSVA", "CDR-L2": "ENSTREY", "CDR-L3": "QQYDRLPLL", "log10 Kd, replicates": "1.07 / 0.83 / 0.62 / 0.05 / 0.61 / 0.67", "log10 Kd (nM), mean": "0.64", "empty controls": "1 of 18 (2.33)"}
{"CDR-L1": "KFSQMVLTGSYVKNSVA", "CDR-L2": "QSSTREN", "CDR-L3": "QQYHRLPLS", "log10 Kd, replicates": "0.66 / 0.36 / 0.43 / 0.41 / 0.35 / 0.12", "log10 Kd (nM), mean": "0.39", "empty controls": "0 of 18"}
{"CDR-L1": "KLSVSTLFESIEKNSVA", "CDR-L2": "ERSTRES", "CDR-L3": "QDYNRLPLS", "log10 Kd, replicates": "1.19 / 2.28 / 1.50 / 2.48 / 1.80 / ND", "log10 Kd (nM), mean": "1.85", "empty controls": "0 of 18"}
{"CDR-L1": "KIYEMTGFQSRNADSIA", "CDR-L2": "DNSTRGR", "CDR-L3": "QQYHRLPLS", "log10 Kd, replicates": "1.61 / 1.89 / 2.17 / 1.88 / 3.02 / 1.54", "log10 Kd (nM), mean": "2.02", "empty controls": "1 of 18 (2.24)"}

Extract of 2 entries:

| CDR-L1 | CDR-L2 | CDR-L3 | log10 Kd, replicates | log10 Kd (nM), mean | empty controls |
|---|---|---|---|---|---|
| TIGQSVHETSRGKNSVA | HASTRED | QQYDRLPLS | 0.37 / 0.76 / 0.59 / 0.57 / 0.77 / 0.70 | 0.63 | 0 of 18 |
| KIYEMTGFQSRNADSIA | DNSTRGR | QQYHRLPLS | 1.61 / 1.89 / 2.17 / 1.88 / 3.02 / 1.54 | 2.02 | 1 of 18 (2.24) |

The range of this assay differs from that of the first round, and the authors advise against merging the two. The authors averaged sequences with at least three values out of six and counted those with two or fewer as poor binders. Of ten entries with the parent sequence, four were seen in most replicates (averages 0.34 to 2.37), three in one and three in none, so single entries are noisy. Background: pairings of all light chain designs with three empty control strains gave a value in 4% of cases (median 2.64, 5th percentile 1.59). Values in that range, when seen in few replicates, are hard to tell from nonspecific mating. For each scFv, signals with the empty controls are counted beside the result, with their mean in brackets.

The measurements come from Li et al. 2023 (doi:10.1038/s41467-023-39022-2) through the FLAb antibody collection.